Measurements taken from patent publication US6913892.

Amino acid sequences for entries named in this document (tags omitted).
UniProt P49146, whole entry: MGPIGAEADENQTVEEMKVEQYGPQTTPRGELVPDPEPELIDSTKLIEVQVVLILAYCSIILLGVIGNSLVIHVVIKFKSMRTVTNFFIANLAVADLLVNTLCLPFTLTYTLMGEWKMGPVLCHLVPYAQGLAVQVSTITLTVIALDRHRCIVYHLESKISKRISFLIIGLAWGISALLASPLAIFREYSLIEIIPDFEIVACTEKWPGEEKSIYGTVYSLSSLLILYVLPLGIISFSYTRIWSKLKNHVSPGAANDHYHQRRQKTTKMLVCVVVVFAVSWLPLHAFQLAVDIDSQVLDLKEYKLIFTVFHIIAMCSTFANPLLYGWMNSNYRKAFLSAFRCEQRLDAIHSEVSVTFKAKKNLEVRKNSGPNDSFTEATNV
UniProt P25929, whole entry: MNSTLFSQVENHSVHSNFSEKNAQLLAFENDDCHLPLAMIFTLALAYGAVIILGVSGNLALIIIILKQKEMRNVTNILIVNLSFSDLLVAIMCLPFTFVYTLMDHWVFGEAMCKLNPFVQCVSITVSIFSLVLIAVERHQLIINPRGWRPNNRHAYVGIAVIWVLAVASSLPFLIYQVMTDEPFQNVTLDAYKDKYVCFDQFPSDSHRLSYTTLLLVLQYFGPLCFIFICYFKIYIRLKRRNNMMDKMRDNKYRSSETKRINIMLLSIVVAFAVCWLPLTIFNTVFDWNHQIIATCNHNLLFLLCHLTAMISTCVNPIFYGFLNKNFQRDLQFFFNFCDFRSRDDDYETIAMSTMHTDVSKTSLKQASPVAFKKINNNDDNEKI

Experiments:
[1] = target: Y2-like receptor population expressed by human SK-N-Be(2) neuroblastoma cells; assay: 125I-PYY displacement, SK-N-Be(2) membranes
[2] = target: human Y2 receptor (human) (UniProt P49146); assay: 125I-PYY displacement, COS-7 membranes
[3] = target: human Y1 receptor (human) (UniProt P25929); assay: 125I-PYY displacement, COS-7 membranes

Substance	Ki [1]	Ki [2]	Ki [3]
porcine NPY13-36 (from UniProt P01304 22-45) (peptide)	1800 pM		
porcine neuropeptide Y (from UniProt P01304 10-45)	280 pM		
PP, salmon (peptide)		170 pM	
porcine NPY2-36 (from UniProt P01304 11-45) (peptide)		1200 pM	1400 pM
human neuropeptide Y, P01303 29-64 (peptide; C-terminal amide; other documents disagree on this pair)		740 pM	
